Experimental data taken from ChEMBL document CHEMBL1136631, “Bis-sulfonamides as endothelin receptor antagonists” (Bioorg Med Chem Lett, 2003).

Amino acid sequences for entries named in this document (tags omitted).
UniProt P25101, whole entry: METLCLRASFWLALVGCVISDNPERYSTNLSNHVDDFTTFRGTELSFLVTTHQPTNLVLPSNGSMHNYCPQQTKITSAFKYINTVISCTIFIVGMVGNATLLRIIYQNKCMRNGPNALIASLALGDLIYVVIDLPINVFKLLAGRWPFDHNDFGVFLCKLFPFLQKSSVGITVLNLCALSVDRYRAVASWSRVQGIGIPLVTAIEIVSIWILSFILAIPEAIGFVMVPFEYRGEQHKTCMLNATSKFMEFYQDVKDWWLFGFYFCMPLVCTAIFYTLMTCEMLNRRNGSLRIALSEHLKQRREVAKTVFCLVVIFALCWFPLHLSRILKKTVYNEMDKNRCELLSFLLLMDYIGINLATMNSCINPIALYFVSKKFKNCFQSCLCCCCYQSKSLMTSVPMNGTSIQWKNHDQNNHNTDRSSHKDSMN

Target: Endothelin-1 receptor (Homo sapiens, UniProt P25101)
Test: Inhibitory concentration required against [125I]ET1 binding to membranes of CHO cells expressing human ETA receptor
Format: cell membranes

Compound: COc1ccccc1Oc1c(NS(=O)(=O)c2ccc(C)cn2)nc(-c2ccncc2)nc1OCCNS(=O)(=O)c1ccc(C)cc1
- IC50: 2190 nM
